Experimental findings from US20030134342A1, “Binding-specific peptides, binding-specific carrier molecules, and uses thereof” (priority 2001, published 2003) are described below.

In data set [1] the test system is human bone marrow AML cells. Put plainly: Effect of phage-peptides on differentiation, cell number and viability of freshly obtained AML patient bone marrow cells cultured seven days. Type of data set: cell-based. The source says:
The effect of various phage-peptides were studied on the differentiation of cells from two AML patients.

Data set [2] deals with human myeloid leukemia cell line HL60. Nature of the data set: Viability of HL60 cells, trypan blue. Type of data set: cell-based. Particulars: phage 75. The protocol: Studies were conducted of the effects of the free G5 12-8B (artificially synthesized), phage displaying G5 12-8B, the free A2 11-24 peptide, phage displaying the A2 11-24 peptide, a combination of the free G5 and A2 peptides, a combination of pure peptides plus phage displaying the peptides, and several concentrations of peptide.

As for EFQQWSGK [G2 11-24], the Viability in data set [1] (Patient 1) stood at 62%; in data set [1] (Patient 2), 78%.
The matching figures for NNATFEDG [G2 12-8A]: 52% and 62%.
In the same order, the values of VSEDIYDA [F1 12-8B] are 54% and 64%.
The matching figures for DEKRGPNE [B4(1)]: 54% and 65%.
In the case of EFQQWSGK [G5 12-8B phage], in data set [2], the “Day 5 Viability” value stood at 99%, the “Day 7 Viability” value came out at 97% and the “Day 9 Viability” value is 57%. This sequence returned a Viability in data set [1] (Patient 1) of 51%. Also, the Viability in data set [1] (Patient 2, listed as GS-12-8B) is 64%.
With IEETARKG [A2 11-24 phage], in data set [2], the “Day 5 Viability” value is on record as 99%, the “Day 7 Viability” value stood at 62% and the “Day 9 Viability” value was determined as 76%. For the same sequence, the Viability in data set [1] (Patient 1) was determined as 66%. For the same sequence, in data set [1] (Patient 2), the Viability worked out at 72%.
